Some results are limits rather than exact numbers.

The chains behind the UniProt entries cited, without tags or fusion partners. Residues count along the entry.
UniProt P01920, 33-261: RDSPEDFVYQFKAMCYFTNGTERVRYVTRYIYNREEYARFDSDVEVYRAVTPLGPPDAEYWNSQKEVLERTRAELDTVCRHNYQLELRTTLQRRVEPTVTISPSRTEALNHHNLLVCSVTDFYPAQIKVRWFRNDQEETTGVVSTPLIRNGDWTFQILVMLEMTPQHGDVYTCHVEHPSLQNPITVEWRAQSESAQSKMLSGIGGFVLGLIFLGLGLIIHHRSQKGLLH
UniProt P01903, 26-254 partner: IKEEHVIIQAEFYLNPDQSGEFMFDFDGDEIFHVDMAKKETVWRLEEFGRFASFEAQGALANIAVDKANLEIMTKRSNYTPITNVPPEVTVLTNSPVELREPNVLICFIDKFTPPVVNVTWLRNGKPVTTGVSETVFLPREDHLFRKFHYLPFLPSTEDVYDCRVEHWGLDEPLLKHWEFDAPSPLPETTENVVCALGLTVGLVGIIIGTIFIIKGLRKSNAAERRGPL
UniProt P01911, 30-266: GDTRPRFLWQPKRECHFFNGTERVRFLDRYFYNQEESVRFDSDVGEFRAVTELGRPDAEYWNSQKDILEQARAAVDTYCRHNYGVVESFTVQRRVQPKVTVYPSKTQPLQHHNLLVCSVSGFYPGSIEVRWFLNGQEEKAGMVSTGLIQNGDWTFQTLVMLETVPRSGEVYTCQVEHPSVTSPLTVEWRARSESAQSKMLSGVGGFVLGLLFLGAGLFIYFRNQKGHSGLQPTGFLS
UniProt P79483, 30-266: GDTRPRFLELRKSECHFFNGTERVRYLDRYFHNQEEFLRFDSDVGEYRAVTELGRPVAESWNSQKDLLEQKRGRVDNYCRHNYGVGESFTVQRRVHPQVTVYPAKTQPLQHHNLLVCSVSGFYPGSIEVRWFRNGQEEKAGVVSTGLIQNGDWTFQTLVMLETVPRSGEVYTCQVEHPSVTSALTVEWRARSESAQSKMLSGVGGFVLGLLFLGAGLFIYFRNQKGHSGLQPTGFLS
UniProt Q30154, 30-266: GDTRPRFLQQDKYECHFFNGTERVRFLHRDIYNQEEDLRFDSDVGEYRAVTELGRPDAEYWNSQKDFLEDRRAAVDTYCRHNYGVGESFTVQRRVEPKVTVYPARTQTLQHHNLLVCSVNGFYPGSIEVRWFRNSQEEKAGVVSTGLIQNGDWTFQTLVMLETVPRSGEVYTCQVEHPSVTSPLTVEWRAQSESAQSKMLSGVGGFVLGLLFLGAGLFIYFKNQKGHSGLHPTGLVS

This note sets out measurements from publication PMC8445433, “Broadly directed SARS-CoV-2-specific CD4+ T cell response includes frequently detected peptide specificities within the membrane and nucleoprotein in patients with acute and resolved COVID-19” (PLoS Pathogens, 2021).

Holding throughout (assay): biochemical
One test has as its target DQA1*05:01 DQB1*03:0 (Homo sapiens, UniProt P01909+P01920).
In a further test the target is T1, DPA1*01:03 DPB1*04:01 (Homo sapiens, UniProt P04440+P20036).
T1 sequence (P20036 29-260): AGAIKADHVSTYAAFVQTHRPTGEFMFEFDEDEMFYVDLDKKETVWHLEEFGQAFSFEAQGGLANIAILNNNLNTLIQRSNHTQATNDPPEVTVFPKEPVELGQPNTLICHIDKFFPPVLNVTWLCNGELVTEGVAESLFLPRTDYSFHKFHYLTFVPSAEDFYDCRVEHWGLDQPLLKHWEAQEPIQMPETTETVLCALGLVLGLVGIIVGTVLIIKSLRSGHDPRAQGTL
T1 sequence (P04440 30-258): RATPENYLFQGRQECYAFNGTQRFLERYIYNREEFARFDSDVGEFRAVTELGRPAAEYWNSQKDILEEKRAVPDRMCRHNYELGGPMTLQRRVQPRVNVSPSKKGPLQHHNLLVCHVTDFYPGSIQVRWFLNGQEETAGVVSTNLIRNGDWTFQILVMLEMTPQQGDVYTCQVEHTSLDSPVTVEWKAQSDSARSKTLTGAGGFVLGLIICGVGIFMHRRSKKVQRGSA
It is filed as binding.

The next test concerns the target DRB1*15:01 (Homo sapiens, UniProt P01903+P01911). It is filed as binding.
The next test deals with DRB3*01:01 (Homo sapiens, UniProt P01903+P79483). It is filed as binding.
For the next test, the target named is DRB5*01:01 (Homo sapiens, UniProt P01903+Q30154). It is filed as binding.

Consider `CC[C@H](C)[C@H](NC(=O)[C@H](Cc1c[nH]cn1)NC(=O)[C@H](CCCCN)NC(=O)[C@H](CC(N)=O)NC(=O)[C@H](CC(C)C)NC(=O)[C@H](CC(C)C)NC(=O)[C@@H](NC(=O)[C@@H](NC(=O)[C@H](CCC(N)=O)NC(=O)[C@H](CC(=O)O)NC(=O)[C@H](CCCCN)NC(=O)[C@@H](N)Cc1ccccc1)C(C)C)[C@@H](C)CC)C(=O)N[C@@H](CC(=O)O)C(=O)N[C@@H](C)C(=O)N[C@@H](Cc1ccc(O)cc1)C(=O)O` [Ncl_70], for which the IC50 at DQA1*05:01 DQB1*03:0 stood at 33.7 µM.
For `CC(C)C[C@H](NC(=O)[C@H](CCC(N)=O)NC(=O)[C@H](CC(N)=O)NC(=O)[C@H](CC(C)C)NC(=O)[C@H](CCCNC(=N)N)NC(=O)[C@H](CC(=O)O)NC(=O)[C@H](CC(C)C)NC(=O)[C@H](CC(C)C)NC(=O)[C@H](CC(C)C)NC(=O)[C@H](CC(C)C)NC(=O)[C@H](C)NC(=O)[C@H](CC(C)C)NC(=O)[C@H](C)NC(=O)[C@H](C)NC(=O)[C@@H](N)CC(=O)O)C(=O)O` [Ncl_44], the IC50 against DQA1*05:01 DQB1*03:0 is 22.5 µM.
Still for that read-out and setting: the figure for `CC[C@H](C)[C@H](NC(=O)CNC(=O)[C@H](CC(=O)O)NC(=O)[C@H](CCCCN)NC(=O)[C@@H](N)CC(N)=O)C(=O)N[C@H](C(=O)N[C@@H](Cc1c[nH]c2ccccc12)C(=O)N[C@H](C(=O)N[C@@H](C)C(=O)N[C@H](C(=O)N[C@@H](CCC(=O)O)C(=O)NCC(=O)N[C@@H](C)C(=O)N[C@@H](CC(C)C)C(=O)N[C@@H](CC(N)=O)C(=O)O)[C@@H](C)O)C(C)C)[C@@H](C)CC` [Ncl_26] is 4.03 µM; for `CC(C)C[C@H](NC(=O)[C@H](CC(N)=O)NC(=O)[C@H](CCCCN)NC(=O)[C@@H](NC(=O)[C@H](CCCNC(=N)N)NC(=O)[C@H](CO)NC(=O)[C@H](Cc1ccc(O)cc1)NC(=O)[C@@H](NC(=O)[C@H](Cc1ccc(O)cc1)NC(=O)[C@H](Cc1ccccc1)NC(=O)[C@H](CO)NC(=O)[C@@H]1CCCN1C(=O)[C@H](CCCCN)NC(=O)[C@@H](NC(=O)[C@@H](N)CC(C)C)C(C)C)C(C)C)C(C)C)C(=O)O` [Env_11] it is 5.77 µM.
On the same count and under the same terms, to `CSCC[C@H](NC(=O)[C@H](CCCCN)NC(=O)[C@H](CO)NC(=O)[C@H](CCC(=O)O)NC(=O)[C@H](CC(C)C)NC(=O)[C@H](CCC(N)=O)NC(=O)[C@H](CC(N)=O)NC(=O)[C@H](CC(C)C)NC(=O)[C@H](CCCNC(=N)N)NC(=O)[C@H](CC(=O)O)NC(=O)[C@H](CC(C)C)NC(=O)[C@H](CC(C)C)NC(=O)[C@H](CC(C)C)NC(=O)[C@@H](N)CC(C)C)C(=O)N[C@@H](CO)C(=O)O` [Ncl_45] belongs over 40 µM.
As for `CC(C)[C@H](NC(=O)[C@H](CC(N)=O)NC(=O)[C@H](Cc1ccc(O)cc1)NC(=O)[C@H](C)NC(=O)[C@@H](N)CCCCN)C(=O)N[C@H](C(=O)N[C@@H](CCC(N)=O)C(=O)N[C@@H](C)C(=O)N[C@@H](Cc1ccccc1)C(=O)NCC(=O)N[C@@H](CCCNC(=N)N)C(=O)N[C@@H](CCCNC(=N)N)C(=O)NCC(=O)N1CCC[C@H]1C(=O)N[C@@H](CCC(=O)O)C(=O)O)[C@@H](C)O` [Ncl_54], the IC50 on DPA1*01:03 DPB1*04:01 was 6.06 µM; against DRB1*15:01, 0.988 µM; on DRB3*01:01, 7.84 µM; on DQA1*05:01 DQB1*03:0 it was 0.794 µM; against DRB5*01:01, 0.00075 µM.
On to `CC[C@H](C)[C@H](NC(=O)[C@H](CCCNC(=N)N)NC(=O)[C@H](CC(C)C)NC(=O)[C@H](Cc1c[nH]cn1)NC(=O)CNC(=O)[C@@H](N)CCCNC(=N)N)C(=O)N[C@@H](C)C(=O)NCC(=O)N[C@@H](Cc1c[nH]cn1)C(=O)N[C@@H](Cc1c[nH]cn1)C(=O)N[C@@H](CC(C)C)C(=O)NCC(=O)N[C@@H](CCCNC(=N)N)C(=O)N[C@@H](CS)C(=O)N[C@@H](CC(=O)O)C(=O)O` [Mem_30], for which the 50% inhibitory concentration (IC50) on DQA1*05:01 DQB1*03:0 is 15.1 µM.
On the same count and under the same terms, to `CC[C@H](C)[C@H](NC(=O)CNC(=O)[C@H](CC(=O)O)NC(=O)[C@H](CCCCN)NC(=O)[C@H](CC(N)=O)NC(=O)[C@H](C)NC(=O)CNC(=O)[C@H](Cc1ccc(O)cc1)NC(=O)[C@@H]1CCCN1C(=O)[C@@H](N)CC(C)C)C(=O)N[C@H](C(=O)N[C@@H](Cc1c[nH]c2ccccc12)C(=O)N[C@H](C(=O)N[C@@H](C)C(=O)N[C@H](C(=O)O)[C@@H](C)O)C(C)C)[C@@H](C)CC` [Ncl_25] belongs 14.6 µM.
Still for that read-out and setting: the figure for `CC[C@H](C)[C@H](NC(=O)[C@H](CCC(=O)O)NC(=O)[C@@H](N)CCCCN)C(=O)N[C@H](C(=O)N[C@H](C(=O)N[C@@H](C)C(=O)N[C@H](C(=O)N[C@@H](CO)C(=O)N[C@@H](CCCNC(=N)N)C(=O)N[C@H](C(=O)N[C@@H](CC(C)C)C(=O)N[C@@H](CO)C(=O)N[C@@H](Cc1ccc(O)cc1)C(=O)N[C@@H](Cc1ccc(O)cc1)C(=O)N[C@@H](CCCCN)C(=O)O)[C@@H](C)O)[C@@H](C)O)C(C)C)[C@@H](C)O` [Mem_34] is 0.649 µM; for `CC[C@H](C)[C@H](NC(=O)[C@H](CCCNC(=N)N)NC(=O)[C@H](CCCNC(=N)N)NC(=O)[C@@H](NC(=O)[C@H](C)NC(=O)[C@H](CCCNC(=N)N)NC(=O)[C@H](CCCNC(=N)N)NC(=O)[C@H](Cc1ccc(O)cc1)NC(=O)[C@@H](N)Cc1ccc(O)cc1)[C@@H](C)O)C(=O)N[C@@H](CCCNC(=N)N)C(=O)NCC(=O)NCC(=O)N[C@@H](CC(=O)O)C(=O)NCC(=O)N[C@@H](CCCCN)C(=O)O` [Ncl_P18] it is 6.72 µM.
The same measure, in the same setting: to `CC[C@H](C)[C@H](NC(=O)[C@H](CCC(N)=O)NC(=O)[C@H](CC(=O)O)NC(=O)[C@@H](N)CC(=O)O)C(=O)NCC(=O)N[C@@H](Cc1ccc(O)cc1)C(=O)N[C@@H](Cc1ccc(O)cc1)C(=O)N[C@@H](CCCNC(=N)N)C(=O)N[C@@H](CCCNC(=N)N)C(=O)N[C@@H](C)C(=O)N[C@H](C(=O)N[C@@H](CCCNC(=N)N)C(=O)N[C@@H](CCCNC(=N)N)C(=O)N[C@H](C(=O)N[C@@H](CCCNC(=N)N)C(=O)O)[C@@H](C)CC)[C@@H](C)O` [Ncl_P17] belongs 5.07 µM; to `CC(C)C[C@H](NC(=O)[C@H](Cc1ccc(O)cc1)NC(=O)[C@H](Cc1ccc(O)cc1)NC(=O)[C@H](Cc1ccccc1)NC(=O)[C@H](Cc1ccc(O)cc1)NC(=O)[C@H](Cc1c[nH]c2ccccc12)NC(=O)[C@H](CCCNC(=N)N)NC(=O)[C@@H]1CCCN1)C(=O)NCC(=O)N[C@H](C(=O)NCC(=O)N1CCC[C@H]1C(=O)N[C@@H](CCC(=O)O)C(=O)N[C@@H](C)C(=O)NCC(=O)O)[C@@H](C)O` [Ncl_22], 1.28 µM.
At DQA1*05:01 DQB1*03:0, `CC(C)C[C@H](NC(=O)[C@H](C)NC(=O)[C@@H](NC(=O)[C@H](Cc1ccccc1)NC(=O)[C@H](Cc1c[nH]c2ccccc12)NC(=O)[C@@H](N)CO)[C@@H](C)O)C(=O)N[C@H](C(=O)N[C@@H](CCC(N)=O)C(=O)N[C@@H](Cc1c[nH]cn1)C(=O)NCC(=O)N[C@@H](CCCCN)C(=O)N[C@@H](CCC(=O)O)C(=O)N[C@@H](CC(=O)O)C(=O)N[C@@H](CC(C)C)C(=O)N[C@@H](CCCCN)C(=O)O)[C@@H](C)O` [Ncl_11] displayed an IC50 of 1.3 µM.

For orientation: IC50 means the concentration that inhibits the measured activity by half.
